Results published in patent US20250188171A1, “COMBINATION THERAPY INCLUDING ANTIBODIES THAT BIND EGFR AND CMET” (MERUS N.V., priority 2022, published 2025).

Key:
[1] = system: N87 (EGFR-high, cMET-low); test: ADCC assay (Promega ADCC Bioassay kit), N87 target cells; format: cell-based; settings: 6 hours, luciferase
Method: (§1) The ADCC activity of the 24 cMetxEGFR bispecifics was tested to the tumor cell lines N87 (EGFR-high, cMET-low) and MKN-45 (EGFR-low, cMET-amplified). The ADCC assay was performed using the Promega ADCC Bioassay kit in 384-well plate format. Antibodies were tested in duplicate at 9 different concentrations in semi-log serial dilutions ranging from 10 µg/ml to 1 ng/ml.
(§2) Antibodies or assay medium control (no IgG) were incubated for 6 hours of induction at 37° C. with ADCC effector cells, and target cells (N87 or MKN-45). Luciferase activity was quantified using Bio-Glo luciferase reagent.

[2] = system: MKN-45 (EGFR-low, cMET-amplified); test: ADCC assay (Promega ADCC Bioassay kit), MKN-45 target cells; format: cell-based; settings: 6 hours, luciferase
Method: as §1, §2

cetuximab: reference antibody for the EGFR Fab panel; monoclonal antibody that inhibits EGFR
ADCC activity [1]: dose-dependent ADCC activity
ADCC activity [2]: dose-dependent ADCC activity
